The text below walks through data of patent US10125125B2, “N-(heteroaryl)-sulfonamide derivatives useful as S100-inhibitors” (Active Biotech AB, priority 2013, dated 2018).

By UniProt entry, the sequences of proteins in these tests, tags left out. Where a name states a change or a piece, a line headed by the entry shows the natural chain unless it says otherwise.
UniProt P06702: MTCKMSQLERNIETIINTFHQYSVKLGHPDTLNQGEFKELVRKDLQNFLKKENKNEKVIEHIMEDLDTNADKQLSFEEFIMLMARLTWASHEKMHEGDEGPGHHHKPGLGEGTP

SMILES strings stand for the structures.

For orientation: IC50 means the point on the concentration scale where inhibition reaches its midpoint.

The target of the assay is biotinylated human S100A9 : rhRAGE-Fc interaction (Homo sapiens (Human), UniProt P06702). In words: AlphaScreen inhibition assay, Biot-hS100A9:hRAGE-Fc (S100A9-RAGE inhibition assay). Type of assay: binding. The source says:
FIG. 1 is a schematic representation of an assay of the inhibition of the interaction between biotinylated human S100A9 and human RAGE-Fc using a small molecule S100A9 binder.
Inhibition Assay, Biot-hS100A9:hRAGE-Fc
The AlphaScreen (Amplified Luminescent Proximity Homogeneous Assay) contains two types of beads, Alpha Donor beads and Acceptor beads (PerkinElmer). Upon laser excitation at 680 nm a photosensitizer in the Donor bead converts ambient oxygen to a more excited singlet state. The singlet oxygen molecule diffuses (maximum 200 nm) to react with a thioxene derivative in the Acceptor bead and generates a chemiluminescence reaction. Fluorophores in the Acceptor bead subsequently emit light at 520-620 nm which can be detected in the EnVision® Multilabel plate Reader (PerkinElmer). […]
In the AlphaScreen Inhibition Assay described here, protein A (Staphylococcus aureus) conjugated Acceptor beads are used together with streptavidin coated Donor beads (Perkin Elmer 6760617M). […] After an additional incubation the signal is measured. […]
Assay concentration of biotinylated hS100A9 and rhRAGE-Fc are batch dependent, and are determined and defined by separate cross-titration experiments using this AlphaScreen inhibition method to verify the optimal setup regarding signal strength and achievement of a defined inhibition with relevant reference compounds. […]

Regarding `CC(CO)c1cnc(NS(=O)(=O)c2cnc(Cl)c(Br)c2)c(O)c1` (racemic) [Example 13, (+/−)-5-bromo-6-chloro-N-[3-hydroxy-5-(1-hydroxypropan-2-yl)pyridin-2-yl]pyridine-3-sulfonamide], the IC50 came out at 3.1 µM.
